Experiments:
RIP1 = RIP1 (Homo sapiens, UniProt Q13546); test: KINOMEscan binding assay, RIP1; details: read-out: RIP1 (KD), equilibrium dissociation constant, class symbols
RIP3 = RIP3 (Homo sapiens, UniProt Q9Y572); test: KINOMEscan binding assay, RIP3; details: read-out: RIP3 (KD), equilibrium dissociation constant, class symbols
MLKL (full length) = MLKL (full length) (Homo sapiens, UniProt Q8NB16); test: KINOMEscan binding assay, MLKL; details: read-out: MLKL (KD), equilibrium dissociation constant, class symbols

The chains behind the UniProt entries cited, without tags or fusion partners.
UniProt Q13546, whole entry: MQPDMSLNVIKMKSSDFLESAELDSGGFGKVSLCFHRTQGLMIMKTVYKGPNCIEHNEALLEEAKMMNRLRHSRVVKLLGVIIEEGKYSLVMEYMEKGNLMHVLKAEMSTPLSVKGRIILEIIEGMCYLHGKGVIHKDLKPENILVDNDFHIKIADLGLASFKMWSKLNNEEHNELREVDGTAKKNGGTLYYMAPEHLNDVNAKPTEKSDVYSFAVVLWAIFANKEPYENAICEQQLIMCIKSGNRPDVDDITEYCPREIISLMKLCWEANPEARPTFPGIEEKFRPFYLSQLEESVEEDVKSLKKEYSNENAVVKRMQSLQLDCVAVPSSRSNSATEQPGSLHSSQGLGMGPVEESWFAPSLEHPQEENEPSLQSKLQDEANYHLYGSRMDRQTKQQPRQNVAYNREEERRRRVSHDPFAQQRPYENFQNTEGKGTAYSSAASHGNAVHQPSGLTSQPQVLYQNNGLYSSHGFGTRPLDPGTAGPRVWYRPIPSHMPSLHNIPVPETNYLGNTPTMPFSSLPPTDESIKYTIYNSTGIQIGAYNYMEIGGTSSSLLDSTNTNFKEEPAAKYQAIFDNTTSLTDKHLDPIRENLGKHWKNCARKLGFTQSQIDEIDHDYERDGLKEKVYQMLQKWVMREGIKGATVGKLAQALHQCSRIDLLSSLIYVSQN
UniProt Q9Y572, whole entry: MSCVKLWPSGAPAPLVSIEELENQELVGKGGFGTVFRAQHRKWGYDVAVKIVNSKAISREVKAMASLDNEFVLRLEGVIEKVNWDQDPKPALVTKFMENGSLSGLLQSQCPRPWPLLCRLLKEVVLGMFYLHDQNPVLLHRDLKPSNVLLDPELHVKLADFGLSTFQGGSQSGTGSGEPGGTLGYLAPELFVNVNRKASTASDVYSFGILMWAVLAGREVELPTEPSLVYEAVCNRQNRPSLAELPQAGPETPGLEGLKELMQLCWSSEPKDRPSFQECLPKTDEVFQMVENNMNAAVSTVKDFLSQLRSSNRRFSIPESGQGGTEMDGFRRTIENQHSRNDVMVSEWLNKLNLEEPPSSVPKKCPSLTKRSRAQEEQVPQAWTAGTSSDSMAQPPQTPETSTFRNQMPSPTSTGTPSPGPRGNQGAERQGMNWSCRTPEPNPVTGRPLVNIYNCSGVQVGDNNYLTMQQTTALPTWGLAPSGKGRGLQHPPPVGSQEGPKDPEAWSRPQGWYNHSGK
UniProt Q8NB16, whole entry: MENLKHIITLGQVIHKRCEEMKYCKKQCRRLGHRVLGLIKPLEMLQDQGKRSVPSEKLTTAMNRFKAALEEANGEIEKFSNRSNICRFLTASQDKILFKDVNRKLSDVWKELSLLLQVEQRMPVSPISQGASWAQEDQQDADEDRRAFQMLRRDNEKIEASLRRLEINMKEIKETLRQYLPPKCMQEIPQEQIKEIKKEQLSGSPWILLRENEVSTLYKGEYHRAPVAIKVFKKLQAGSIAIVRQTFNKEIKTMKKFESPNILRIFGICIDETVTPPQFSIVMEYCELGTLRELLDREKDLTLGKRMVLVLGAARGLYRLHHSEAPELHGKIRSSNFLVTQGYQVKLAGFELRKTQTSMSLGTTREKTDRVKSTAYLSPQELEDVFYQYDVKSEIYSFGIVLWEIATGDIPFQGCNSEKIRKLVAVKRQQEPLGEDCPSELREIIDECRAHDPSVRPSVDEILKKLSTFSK

| SMILES | Kd (RIP1) [µM] | Kd (RIP3) [µM] | Kd (MLKL (full length)) [µM] |
| --- | --- | --- | --- |
| COC[C@@H](Oc1cc(-c2n[nH]c(Nc3cc(C)on3)c2C(N)=O)ccc1NS(=O)(=O)C(F)F)c1ccc(F)cc1 | > 30 | > 30 | < 0.01 |
| CCS(=O)(=O)Nc1ccc(-c2n[nH]c(Nc3cc(C(F)(F)F)ccn3)c2C(N)=O)cc1OCc1ccc(F)cc1 | > 30 | > 30 | – |

— patent publication US12583836B2 (Anaxis Pharma Pty Ltd, priority 2020, dated 2026)
